The test addresses T1, [F289C;N312C] beta2-AR (Homo sapiens, UniProt P07550, F289C/N312C).
T1 construct: expressed in transfected cells; host or cells: COS-7
Kind of test: cAMP accumulation in COS-7 cells expressing metal-ion site engineered beta2-adrenergic receptor. It counts as cell-based. As to conditions: copper-chelator complex, read-out: EC50, stimulation of cAMP accumulation. On the procedure: The effect of Cu(II) and copper-chelator complexes on stimulation of accumulation of intracellular cAMP was analyzed in COS-7 cells expressing the beta2-adrenoceptor.
Methods—Mutations were created in the beta2-AR cDNA by the PCR-directed overlap-extension method (Ho et al. (1989) Gene 77; 51-59). The beta2-AR cDNA was expressed by transient transfection into COS-7 cells. Two days after transfection the cells were assayed for intracellular levels of basal and ligand-induced cyclic AMP. The assay employed is essentially as described in Solomon et al (Anal. Biochem. (1974) 58: 541). Labelled adenine (2 ?Ci, [^3H]adenine, Amersham TRK311) was added to cells seeded in 6-well culture dishes. The following day the cells were washed twice wit HBS buffer [25 mM Hepes, 0.75 mM NaH2PO4, 140 mM NaCl (pH 7.2)] and incubated in buffer supplemented with 1 mM 3-isobutyl-1-methylxanthine (Sigma I-5879). Agonists were added and the cells were incubated for 30 min at 37° C. The assay was terminated by placing the cells on ice and aspiration of the buffer followed by addition of ice-cold 5% trichloroacetic acid containing 0.1 mM unlabelled camp (Sigma A-9062) and ATP (Sigma A-9501). Cyclic AMP was then isolated by application of the supernatant to a 50W-X4 resin (BioRad) and subsequently an alumina resin (A-9003; Sigma) eluting the cyclic AMP with 0.1 M imidazole (Sigma I-0125). […]

The term EC50 denotes the concentration at which the effect is half-maximal. For “2,2′-di(benzimidazol-2-yl)-quinoline) [compound 85]”, the EC50 is 470 nM.

(Values after patent US20020061599A1, “Method of identifying ligands of biological target molecules” (priority 1999, published 2002).)
